CycPeptMPDB entries from one study

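The data file gives no further conditions (lipid, pH, time, direction or concentration), and values from different papers need not be comparable. Other peptides of the study may be missing here. Entries at the database's floor value (log10 P of -10) are not listed.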

PAMPA is the parallel artificial membrane permeability assay, which has no cells and reads passive diffusion.
Permeability is in 10^-6 cm/s, converted from the database's log10 values; higher is more permeable.

| compound | PAMPA (10^-6 cm/s) |
|---|---|
| CC(C)C[C@@H]1C(=O)N(C)[C@@H](CC(C)C)C(=O)N2CCC[C@@H]2C(=O)N[C@H](CC(C)C)C(=O)N[C@@H](Cc2ccccc2)C(=O)N2CCC[C@@H]2C(=O)N[C@@H](C)C(=O)N1C | 0.65 |
| CC(C)C[C@H]1NC(=O)[C@@H](C)N(C)C(=O)[C@H]2CCCN2C(=O)[C@H](Cc2ccccc2)NC(=O)CN(Cc2ccccc2)C(=O)[C@H]2CCCN2C(=O)CN(Cc2ccccc2)C1=O | 0.17 |
| CC(C)C[C@@H]1NC(=O)[C@H]2CCCN2C(=O)[C@@H](CC(C)C)N(C)C(=O)[C@H](CC(C)C)NC(=O)[C@@H](C)N(C)C(=O)[C@@H]2CCCN2C(=O)[C@H](Cc2ccccc2)NC1=O | 3.5 |
| CC(C)C[C@@H]1C(=O)N[C@@H](Cc2ccccc2)CC(=O)N2CCC[C@H]2C(=O)N(C)[C@@H](CC(C)C)C(=O)N[C@@H](Cc2ccccc2)C(=O)N2CCC[C@@H]2C(=O)N[C@@H](C)C(=O)N1C | 1.1 |
| CC(C)C[C@H]1C(=O)N(Cc2ccccc2)CC(=O)N2CCC[C@H]2C(=O)N(C)[C@@H](CC(C)C)C(=O)N[C@@H](Cc2ccccc2)C(=O)N[C@@H](C)C(=O)N1C | 3 |
| CC(C)C[C@@H]1C(=O)N[C@@H](Cc2ccccc2)C(=O)N2CCC[C@@H]2C(=O)N(C)[C@H](C)C(=O)N[C@H](CC(C)C)C(=O)N[C@@H](Cc2ccccc2)CC(=O)N2CCC[C@@H]2C(=O)N1C | 1.1 |
| CC(C)C[C@@H]1NC(=O)[C@H](C)NC(=O)[C@H](Cc2ccccc2)NC(=O)[C@@H](CC(C)C)N(C)C(=O)[C@@H]2CCCN2C(=O)[C@@H](CC(C)C)NC1=O | 1 |
| CC(C)C[C@@H]1NC(=O)C[C@H](Cc2ccccc2)NC(=O)[C@H]2CCCN2C(=O)[C@H](Cc2ccccc2)NC(=O)[C@H](CC(C)C)NC(=O)[C@@H]2CCCN2C(=O)C[C@H](Cc2ccccc2)NC1=O | 1.2 |
| CC(C)C[C@@H]1NC(=O)C[C@H](Cc2ccccc2)NC(=O)[C@@H]2CCCN2C(=O)[C@H](Cc2ccccc2)NC(=O)[C@H](CC(C)C)N(C)C(=O)[C@H]2CCCN2C(=O)[C@@H](CC(C)C)NC1=O | 4.1 |
| CC(C)C[C@@H]1NC(=O)[C@@H](C)NC(=O)[C@H]2CCCN2C(=O)[C@H](Cc2ccccc2)NC(=O)[C@H](CC(C)C)NC(=O)[C@@H]2CCCN2C(=O)C[C@H](Cc2ccccc2)NC1=O | 0.69 |
| CC(C)C[C@@H]1C(=O)N(Cc2ccccc2)CC(=O)N2CCC[C@@H]2C(=O)N(Cc2ccccc2)CC(=O)N[C@@H](Cc2ccccc2)C(=O)N(C)[C@@H](C)C(=O)N1C | 1.3 |
| CC(C)C[C@@H]1C(=O)N[C@@H](Cc2ccccc2)C(=O)N2CCC[C@@H]2C(=O)N[C@@H](C)C(=O)N[C@H](CC(C)C)C(=O)N(Cc2ccccc2)CC(=O)N2CCC[C@H]2C(=O)N1C | 5.6 |
| CC(C)C[C@@H]1C(=O)N[C@@H](Cc2ccccc2)CC(=O)N2CCC[C@@H]2C(=O)N(C)[C@@H](CC(C)C)C(=O)N[C@@H](Cc2ccccc2)C(=O)N[C@H](C)C(=O)N1C | 5 |
| CC(C)C[C@@H]1C(=O)N2CCC[C@H]2C(=O)N(C)[C@H](CC(C)C)C(=O)N[C@@H](Cc2ccccc2)C(=O)N2CCC[C@H]2C(=O)N(C)[C@@H](C)C(=O)N[C@H](CC(C)C)C(=O)N1C | 2.9 |
| CC(C)C[C@@H]1C(=O)N[C@H](CC(C)C)C(=O)N2CCC[C@H]2C(=O)N[C@H](CC(C)C)C(=O)N[C@@H](Cc2ccccc2)C(=O)N2CCC[C@@H]2C(=O)N(C)[C@@H](C)C(=O)N1C | 0.29 |
| CC(C)C[C@H]1NC(=O)[C@H]2CCCN2C(=O)[C@H](CC(C)C)N(C)C(=O)[C@@H](CC(C)C)NC(=O)C[C@H](Cc2ccccc2)NC(=O)[C@@H]2CCCN2C(=O)[C@H](Cc2ccccc2)NC1=O | 2.6 |

Excerpt, the opening 2 entries:

| compound | PAMPA (10^-6 cm/s) |
|---|---|
| CC(C)C[C@@H]1C(=O)N(C)[C@@H](CC(C)C)C(=O)N2CCC[C@@H]2C(=O)N[C@H](CC(C)C)C(=O)N[C@@H](Cc2ccccc2)C(=O)N2CCC[C@@H]2C(=O)N[C@@H](C)C(=O)N1C | 0.65 |
| CC(C)C[C@H]1NC(=O)[C@@H](C)N(C)C(=O)[C@H]2CCCN2C(=O)[C@H](Cc2ccccc2)NC(=O)CN(Cc2ccccc2)C(=O)[C@H]2CCCN2C(=O)CN(Cc2ccccc2)C1=O | 0.17 |

Data: CycPeptMPDB; original report Townsend et al. 2020, doi:10.26434/chemrxiv.13335941.v1.